# From patent US6794489B2, “Compositions and methods for treatment of sexual dysfunction” (Palatin Technologies, Inc., priority 1999, dated 2004)
# The chains behind the UniProt entries cited, without tags or fusion partners.
# UniProt P32245, whole entry: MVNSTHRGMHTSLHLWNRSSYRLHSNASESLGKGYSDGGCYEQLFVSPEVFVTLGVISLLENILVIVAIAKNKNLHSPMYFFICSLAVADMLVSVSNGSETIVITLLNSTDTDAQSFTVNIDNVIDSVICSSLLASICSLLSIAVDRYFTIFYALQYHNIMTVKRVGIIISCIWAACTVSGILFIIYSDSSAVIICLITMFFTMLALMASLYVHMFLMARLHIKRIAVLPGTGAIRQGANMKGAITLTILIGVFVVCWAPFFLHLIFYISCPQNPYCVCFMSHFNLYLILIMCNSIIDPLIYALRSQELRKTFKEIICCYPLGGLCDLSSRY
# Target: MC4-R (Homo sapiens, UniProt P32245)
# Assay: Agonist activity by cAMP detection in HEK 293 cells
# Assay type: cell-based
# Parameters: expressed in transfected cells; host or cells: HEK 293 cells, stably transfected
substance,measurement,setting,value
α-MSH,cAMP CONCENTRATION,test compound 3.91 × 10^−10M,20.2 pmol/mL
same,cAMP CONCENTRATION,test compound 6.25 × 10^−9M,45.0 pmol/mL
same,cAMP CONCENTRATION,test compound […] 10^−8M,146.3 pmol/mL
same,cAMP CONCENTRATION,test compound […] 10^−10M,40.0 pmol/mL
